Antibody variant affinities, Ab-14 heavy chain, assay B

Source: Li et al. 2023 (doi:10.1038/s41467-023-39022-2), MIT Lincoln Laboratory and A-Alpha Bio; data file from the FLAb repository.

Binding partner: SARS-CoV-2 spike HR2 peptide, sequence PDVDLGDISGINAS.

Parent scFv Ab-14: VH joined to VL by three GGGGS repeats. Changes lie in the heavy chain CDRs alone.
VH: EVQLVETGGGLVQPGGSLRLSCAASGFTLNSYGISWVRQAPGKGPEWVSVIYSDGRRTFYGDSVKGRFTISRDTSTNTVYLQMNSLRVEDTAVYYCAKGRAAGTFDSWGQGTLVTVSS
VL: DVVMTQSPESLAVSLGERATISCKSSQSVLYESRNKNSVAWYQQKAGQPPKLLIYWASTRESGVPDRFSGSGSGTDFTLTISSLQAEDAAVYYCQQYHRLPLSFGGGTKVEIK

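The parent was found by panning a naive human phage display library on the peptide. This is the validation round: designs drawn from the data on random variants, tested in the same kind of assay. Their group label is 14H_En_HC (En: ensemble of fine-tuned language models; HC: hill climbing; a sequence that several methods proposed may carry one label only). The assay is AlphaSeq: two haploid yeast populations carry antibody and antigen on their surface. Mating (16 h, 30 °C) was followed by selection of diploids and sequencing of their barcodes. Read counts were normalised to the haploid input and turned into Kd by a linear fit to BCL2-family pairs of known affinity, for each replicate. Mating was done six times.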

The parent's heavy chain CDRs are GFTLNSYGIS, VIYSDGRRTFYGDSVK, GRAAGTFDS; each variant's own CDRs replace them letter for letter. Numbers give log10(Kd / nM), so 0 is 1 nM and 3 is 1 µM. Smaller is tighter. The mean shown is taken over the replicates in which the pair was detected. Where no diploid with the target was found in that replicate, the entry reads "nd": below detection, most likely a poor binder, though not proof of it. Values of this round are not directly comparable with the first-round values of the same sequences. Three control strains display no target. For all heavy chain designs, 1% of the pairings with them gave a signal, with a median of 2.08 and one signal in twenty below 0.84, so weak values seen in few replicates may be background. The control count says in how many pairings with the empty strains this scFv gave a signal, with their mean in brackets. In the paper, a design with two or fewer of six values counts as a poor binder. Of ten entries with the parent sequence, four were seen in most replicates (averages 0.34 to 2.37), three in one and three in none, so single entries are noisy.

| # | CDR-H1 | CDR-H2 | CDR-H3 | log10 Kd, replicates | mean, log10 nM | control signals |
|---|---|---|---|---|---|---|
| 1 | GFSLDEYGIS | VIYADGRRTFYSDDVK | GNVAGTFDS | -0.55 / -0.48 / -0.61 / -0.44 / -0.39 / -0.37 | -0.47 | 0 of 18 |
| 2 | GFDLNDYGIS | VIYADGRRTFYADSVK | GEIAGTFDI | 0.24 / -0.48 / -0.57 / -0.44 / -0.57 / -0.36 | -0.36 | 1 of 18 (1.77) |
| 3 | GFDLNEYGIS | VIYADGRRTAYADSVK | GKVAGTFNV | -1.36 / -0.91 / -1.09 / -0.88 / -1.42 / -0.96 | -1.11 | 0 of 18 |
| 4 | GFNLDEYGIS | VIYADGMRTFYSDNVK | GEAGGTFDI | 1.13 / 0.51 / -0.05 / 0.33 / 1.50 / 0.93 | 0.72 | 0 of 18 |
| 5 | GFDLNEYGIS | VIYADGLRTFYTDNVK | GELAGTFDV | -1.23 / -1.09 / -0.83 / -1.06 / -1.28 / -0.91 | -1.07 | 0 of 18 |
| 6 | GFDLNEYGIS | VIYADGRRTFYADSVK | GNNAGTFNV | -0.52 / -0.58 / -0.57 / -0.93 / -0.78 / -0.64 | -0.67 | 0 of 18 |
| 7 | GFDLNEYGIS | VIYADGVRSFYADSVK | GQNAGTFDV | -0.41 / -0.09 / -0.21 / -0.23 / -0.51 / -0.09 | -0.26 | 0 of 18 |
| 8 | GFDLNEYGIS | VIYADGRRTFYSDSVK | GEAAGTFVV | 1.54 / 0.75 / 0.81 / 0.87 / 0.90 / 0.91 | 0.96 | 0 of 18 |
| 9 | GFDIDEYGIS | VIYADGMRTFYTDSVK | GETAGTFDA | 0.13 / -0.03 / -0.52 / 0.07 / 0.36 / -0.24 | -0.04 | 0 of 18 |
| 10 | GFDLNEYGIS | VIYADGRRTFYVDSVK | GSNAGTFDS | -0.14 / -0.34 / -0.28 / -0.43 / -0.24 / -0.01 | -0.24 | 0 of 18 |
| 11 | GFNLNEYGIS | VIYADGRRTFYADSVK | GEVAGSFDI | 0.00 / 0.05 / -0.03 / -0.37 / -0.20 / -0.26 | -0.14 | 1 of 18 (1.73) |
| 12 | GFDLNEYGIS | VIYADGRRTSYIDSVK | GETAGTFDQ | -0.26 / -0.26 / -0.58 / -0.53 / -0.18 / -0.31 | -0.35 | 0 of 18 |
| 13 | GFDLNDYGIS | VIYADGRRTFYADSVK | GELAGTFDI | -0.59 / -0.28 / -0.52 / -0.62 / -0.39 / -0.31 | -0.45 | 0 of 18 |
| 14 | GFDLNEYGIS | VIYADGRRTFYADSVK | GSNAGTFDM | -1.04 / nd / -0.45 / -0.82 / 0.43 / -0.30 | -0.44 | 0 of 18 |
| 15 | GFDLNEYGIS | VIYADGRRTFYADSVK | GEDAGTFDI | 1.07 / 0.52 / 0.46 / 0.04 / 0.59 / 0.57 | 0.54 | 0 of 18 |
| 16 | GFDLNEYGIS | VIYADGRRTFYTDSVK | GGNAGTFIM | nd / nd / nd / 3.34 / nd / nd | 3.34 | 1 of 18 (1.06) |
| 17 | GFDLNEYGIS | VIYADGTRTAYTDSVK | GNAAGTFDL | 0.27 / 0.04 / -0.08 / 0.30 / 0.31 / -0.01 | 0.14 | 0 of 18 |
| 18 | GFDLNEYGIS | VIYADGMRTFYADSVK | GEAAGTFDV | -0.63 / -0.66 / -0.43 / -0.89 / -0.63 / -0.28 | -0.59 | 0 of 18 |
| 19 | GFDLNDYGIS | VIYADGRRTAYSDSVK | GEVAGTFDS | -0.20 / -0.52 / -0.68 / -0.93 / -0.48 / -0.63 | -0.57 | 0 of 18 |
| 20 | GFQLDEYGIS | VIYADGRRTFYADSVK | GNVAGTFDV | -0.47 / -0.42 / -0.57 / -0.79 / -0.67 / -0.41 | -0.56 | 0 of 18 |
| 21 | GFDLNEYGIS | VIYADGRRTAYADSVK | GSEAGTFNM | -0.64 / -0.52 / -0.69 / -0.98 / -0.58 / -0.49 | -0.65 | 1 of 18 (1.54) |
| 22 | GFDLNEYGIS | VIYADGRRTQYIDSVK | GENAGTFDA | -0.45 / -0.72 / -0.49 / -1.31 / -0.71 / -0.89 | -0.76 | 0 of 18 |
| 23 | GFDLNEYGIS | VIYADGRRTFYIDSVK | GEIAGTFDS | -0.29 / -0.62 / -0.66 / -0.47 / -0.60 / -0.54 | -0.53 | 0 of 18 |
| 24 | GFTLDEYGIS | VIYADGRRTFYADSVK | GETAGTFDI | 0.54 / -0.43 / -0.33 / -0.71 / -0.49 / -0.21 | -0.27 | 0 of 18 |
| 25 | GFNLDEYGIS | VIYADGRRTFYSDSVK | GEAGGTFDI | 0.42 / 0.51 / 0.94 / 0.91 / 0.47 / 0.54 | 0.63 | 0 of 18 |
| 26 | GFDLNEYGIS | VIYADGKRTFYADSVK | GNAAGTFNV | 0.01 / 0.01 / 0.05 / -0.06 / -0.10 / -0.08 | -0.03 | 0 of 18 |
| 27 | GFDLNEYGIS | VIYADGRRTFYADSVK | GNTAGTFDI | -0.57 / -0.96 / -0.40 / -0.86 / -0.70 / -0.30 | -0.63 | 0 of 18 |
| 28 | GFDLNEYGIS | VIYADGRRTSYKDSVK | GEVAGTFNV | -0.11 / 0.19 / -0.37 / -0.63 / -0.72 / -0.55 | -0.36 | 0 of 18 |
| 29 | GFDLNEYGIS | VIYADGRRTFYADKVK | GVNAGTFDS | 0.10 / -0.30 / -0.69 / -0.05 / -0.57 / -0.25 | -0.29 | 0 of 18 |
| 30 | GFDLDEYGIS | VIYADGMRTFYTDSVK | GENAGTFDA | -0.16 / -0.46 / -0.48 / -0.57 / -0.60 / -0.42 | -0.45 | 0 of 18 |
| 31 | GFDLNEYGIS | VIYADGRRTFYSDSVK | GETAGFFDE | nd / nd / nd / nd / nd / nd | nd | 0 of 18 |
| 32 | GFDLNEYGIS | VIYADGRRTFYADSVK | GKEAGTFNV | -0.31 / -0.51 / -0.54 / -0.18 / -0.75 / -0.03 | -0.39 | 0 of 18 |
| 33 | GFDINEYGIS | VIYADGRRTQYADSVK | GEAAGTFDL | 0.32 / -0.28 / 0.74 / -0.28 / -0.52 / nd | -0.01 | 0 of 18 |
| 34 | GFDLEDYGIS | VIYADGRRTAYSDSVK | GEAAGTFDS | 0.22 / -0.13 / -0.71 / 1.12 / 0.17 / 0.39 | 0.17 | 1 of 18 (0.76) |
| 35 | GFDLNEYGIS | VIYADGVRTFYVDSVK | GQVAGTFDV | -0.17 / -0.43 / -0.47 / -0.36 / -0.43 / -0.22 | -0.35 | 0 of 18 |
| 36 | GFDLNEYGIS | VIYADGFRTFYADSVK | GNLAGTFDQ | -0.44 / -0.69 / -0.74 / -0.62 / -0.65 / -0.50 | -0.61 | 0 of 18 |
| 37 | GFDLNEYGIS | VIYADGRRTFYADSVK | GHVAGTFVT | -0.64 / -0.59 / -0.73 / -1.06 / -0.76 / -0.69 | -0.75 | 0 of 18 |
| 38 | GFNLDEYGIS | VIYADGRRTAYQDSVK | GEVAGTFDF | nd / nd / nd / nd / nd / nd | nd | 1 of 18 (0.91) |
| 39 | GFDLNEYGIS | VIYADGQRTFYSDSVK | GQTAGTFDA | -0.77 / -0.57 / -0.46 / -1.04 / -0.43 / -1.10 | -0.73 | 0 of 18 |
| 40 | GFDLNEYGIS | VIYADGRRTFYIDSVK | GEEAGTFDM | -0.35 / -0.66 / 0.12 / -0.77 / -0.39 / -0.29 | -0.39 | 0 of 18 |
| 41 | GFDLDEYGIS | VIYADGRRTFYADSVK | GEVAGTFDA | 0.00 / -0.31 / -0.06 / -0.28 / -0.30 / -0.19 | -0.19 | 0 of 18 |
| 42 | GFDLNEYGIS | VIYADGRRTAYSDSVK | GAVAGTFDK | 0.28 / 0.00 / -0.15 / 0.02 / 0.26 / 0.61 | 0.17 | 0 of 18 |
| 43 | GFDLNEYGIS | VIYADGRRTAYSDSVK | GEIAGTFDQ | 0.38 / -0.56 / 0.14 / -0.72 / -0.80 / -0.62 | -0.36 | 0 of 18 |
| 44 | GFNLNEYGIS | VIYADGRRTFYADSVK | GNAAGTFDV | -0.31 / -0.27 / -0.20 / -0.45 / -0.11 / -0.16 | -0.25 | 0 of 18 |
| 45 | GFDLDEYGIS | VIYADGRRTFYADSVK | GEQAGTFDV | -0.43 / 0.01 / -0.08 / -0.58 / 0.28 / -0.31 | -0.18 | 0 of 18 |
| 46 | GFDLNEYGIS | VIYADGRRTVYSDSVK | GEVAGTFDV | 0.08 / -0.15 / -0.55 / -0.09 / -0.39 / -0.14 | -0.21 | 0 of 18 |
| 47 | GFDLNEYGIS | VIYADGRRTFYADSVK | GETAGTFDF | -0.49 / -0.81 / -0.61 / -0.53 / -0.75 / -0.54 | -0.62 | 0 of 18 |
| 48 | GFDLNEYGIS | VIYADGLRTSYADSVK | GNNAGTFDQ | 0.20 / -0.27 / 0.84 / 0.57 / -0.19 / 0.11 | 0.21 | 0 of 18 |

Extract of 7 entries:

CDR-H1,CDR-H2,CDR-H3,"log10 Kd, replicates","mean, log10 nM",control signals
GFNLNEYGIS,VIYADGRRTFYADSVK,GNAAGTFDV,-0.31 / -0.27 / -0.20 / -0.45 / -0.11 / -0.16,-0.25,0 of 18
GFDINEYGIS,VIYADGRRTQYADSVK,GEAAGTFDL,0.32 / -0.28 / 0.74 / -0.28 / -0.52 / nd,-0.01,0 of 18
GFDLDEYGIS,VIYADGRRTFYADSVK,GEVAGTFDA,0.00 / -0.31 / -0.06 / -0.28 / -0.30 / -0.19,-0.19,0 of 18
GFDLDEYGIS,VIYADGRRTFYADSVK,GEQAGTFDV,-0.43 / 0.01 / -0.08 / -0.58 / 0.28 / -0.31,-0.18,0 of 18
GFDLNEYGIS,VIYADGRRTAYADSVK,GKVAGTFNV,-1.36 / -0.91 / -1.09 / -0.88 / -1.42 / -0.96,-1.11,0 of 18
GFDLNEYGIS,VIYADGRRTAYSDSVK,GEIAGTFDQ,0.38 / -0.56 / 0.14 / -0.72 / -0.80 / -0.62,-0.36,0 of 18
GFDLDEYGIS,VIYADGMRTFYTDSVK,GENAGTFDA,-0.16 / -0.46 / -0.48 / -0.57 / -0.60 / -0.42,-0.45,0 of 18